Results on one molecule are retold here after US20030175745A1, “Peptides with growth inhibitory action” (priority 2001, published 2003).

The assay deals with NIH3T3-PDGF-ββ cells. Kind of assay: Growth assay with NIH3T3-PDGF-ββ cells, cell number by PicoGreen DNA. It counts as cell-based. As to the method:
NIH 3T3 cells transfected with PDGF-ββ (a stable cell line) were obtained from Mount Sinai School of Medicine. These cells overexpress PDGF-ββ and are activated via the PDGF-R in an autocrine fashion. Cells were grown at 37° C. in Dulbecco's Modified Eagles Medium (high glucose) (DMEM) with 10% heat-inactivated fetal calf serum (FCS) with 100 units or μg/ml penicillin/streptomycin with 750 μg/ml G418 sulfate (Geneticin) selection. Cells were incubated in an atmosphere of 5% CO2, and cultures were fed twice weekly. For subcultivation, cells were allowed to attain confluence and washed twice with PBS or Hank's balanced salt solution (minus Ca^++ and Mg^++) before addition of a trypsin/EDTA solution to dislodge the cells. Cells were split anywhere from ¼ to 1/12 into a sterile T-75 Flask depending on the time desired until confluence. […]
Cell number was assessed by measurement of total cellular double-stranded DNA using the PicoGreen Assay Kit (Molecular Probes, Eugene, Oreg., USA, lot #6405-1). […] Plates were read after five minutes in a fluorimeter (irradiated at an excitation wavelength of 485 nm). Fluorescence emission was measured at 530 nm using a CytoFluor Series 4000 (PerSeptive Biosystems, Framingham, Mass.). […] For analysis, DNA absorbance/emission was compared to the absorbance/emission shown by a standard curve of DNA.

Regarding `NCCCC[C@H](NC(=O)[C@H](CCCCN)NC(=O)[C@H](CCCCN)NC(=O)[C@@H](N)CCCCN)C(=O)O` [KKKK], the “growth inhibition in the initial screen of the library” value is “inhibiting growth”.
